According to PMC7538598 (Scientific Reports, 2020):

Target: T1, α1-GFP GlyR (Homo sapiens, UniProt P23415)
T1 construct: made in house; host or cells: Xenopus laevis oocytes injected with cRNA; total solubilized membranes in SMA nanodiscs
T1 sequence (P23415 29-457): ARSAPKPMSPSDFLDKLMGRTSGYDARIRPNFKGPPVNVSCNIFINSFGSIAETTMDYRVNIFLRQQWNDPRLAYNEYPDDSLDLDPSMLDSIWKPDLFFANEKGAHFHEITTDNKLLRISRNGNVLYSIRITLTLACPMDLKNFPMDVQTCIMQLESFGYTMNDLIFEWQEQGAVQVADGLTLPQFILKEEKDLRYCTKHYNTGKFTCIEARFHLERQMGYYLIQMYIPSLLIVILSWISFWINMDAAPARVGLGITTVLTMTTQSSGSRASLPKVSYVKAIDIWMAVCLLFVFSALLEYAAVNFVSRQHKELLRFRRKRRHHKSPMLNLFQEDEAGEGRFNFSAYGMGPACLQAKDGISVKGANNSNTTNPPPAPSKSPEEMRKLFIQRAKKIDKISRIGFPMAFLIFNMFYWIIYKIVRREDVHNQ
Test: MST of α1-GFP GlyR SMA-copolymer nanodiscs (total solubilized membranes) from X. laevis oocytes
Format: binding
Description: cRNA was synthesized using the AmpliCap-Max T7 High Yield Message Maker Kit (Cellscript, Madison, WI, USA). Therefore GFP-GlyR α1 in pCDNA3.1(+) was linearized with NotI. Oozytes were surgically taken from female X. laevis after anesthesia with 0.1% Tricaine in water. For SMA-copolymer solubilization, 300–400 oocytes were injected with 50 ng in a volume of 50.6 nl of cRNA. After injection the oocytes were incubated in ND-96 solution (96 mM NaCl, 2 mM KCl, 1 mM CaCl2, 1 mM MgCl2, 5 mM HEPES, pH 7.4) at 18 °C for 1–2 days.

- Hill coefficient (MST): 0.8
- MST signal amplitude (mean ± SD): 1.32 ± 0.17 and 1.32 ± 0.14
Compound: NCCS(=O)(=O)O [taurine]

Where “and” joins values, the source holds several entries; their conditions need not be identical. Identical values can stand only once.
